Laboratory results published in patent US20250325676A1, “CAMPTOTHECIN PRODRUG AND PHARMACEUTICAL COMPOSITION THEREOF” (TIANJIN HEMAY ONCOLOGY PHARMACEUTICAL CO., LTD, priority 2022, published 2025).

Tests used:
[1] = test system: human colon cancer HCT116; assay: Growth of human colon cancer HCT116 in allogeneic transplantation model; format: in vivo, nude mice; conditions: 10 mg/kg i.v. qw × 2, nude mouse
[2] = test system: human gastric cancer NCI-N87; assay: Growth of human gastric cancer NCI-N87 in allogeneic transplantation model; format: in vivo, nude mice; conditions: 20 mg/kg i.v. qw × 2, nude mouse
Description: The tumor volume was measured 2 to 3 times per week. […] The subcutaneous tumors were peeled and weighed.
The calculation formula of the tumor volume: Volume=0.5×long diameter×short diameter×short diameter.

[3] = test system: human small cell lung cancer NCI-H446; conditions: 20 mg/kg i.v. qw × 2; NCI-H446 model, nude mouse
[4] = test system: human colon cancer SW620; conditions: 30 mg/kg i.v. qw × 2; SW620 model, nude mouse
[5] = test system: human colon cancer LoVo; conditions: 30 mg/kg i.v. qw × 2; LoVo model, nude mouse
[6] = test system: human pancreatic cancer BxPC-3; assay: Growth of human pancreatic cancer BxPC-3 in allogeneic transplantation model; format: in vivo, nude mice; conditions: 25 mg/kg i.v. qw × 2; BxPC-3 model, nude mouse

## (2S,3S,4S,5R,6S)-6-(3-((1-(2-((4′-((E)-(8-amino-1-hydroxy-5,7-disulfonicnaphthalen-2-yl)diazenyl)-3,3′-dimethyl-[1,1′-biphenyl]-4-yl)amino)-2-oxoethyl)-1H-1,2,3-triazol-4-yl)methoxy)-4-((((S)-4,11-diethyl-4-hydroxy-3,14-dioxy-3,4,12,14-tetrahydro-1H-pyrano[3′,4′:6,7]indolazino[1,2-b]quinolin-9-yl)oxy)methyl)phenoxy)-3,4,5-trihydroxytetrahydro-2H-pyran-2-carboxylate trisodium [Example 90]
[1]
  Final body weight change (%): −9.5%
[2]
  Final body weight change (%): 9.0%

## (2S,3S,4S,5R,6S)-6-(3-((1-(6-((4′-((E)-(8-amino-1-hydroxy-5,7-disulfonicnaphthalen-2-yl)diazenyl)-3,3′-dimethyl-[1,1′-biphenyl]-4-yl)amino)-6-oxohexyl)-1H-1,2,3-triazol-4-yl)methoxy)-4-((((S)-4,11-diethyl-4-hydroxy-3,14-dioxy-3,4,12,14-tetrahydro-1H-pyrano[3′,4′:6,7]indolazino[1,2-b]quinolin-9-yl)oxy)methyl)2-methylphenoxy)-3,4,5-trihydroxytetrahydro-2H-pyran-2-carboxylate trisodium [Example 14]
[3]
  Final body weight change (%): 2.4%

## 4-amino-6-((E)-(4′-(6-(4-((2-(((S)-4,11-diethyl-4-hydroxy-3,14-dioxy-3,4,12,14-tetrahydro-1H-pyrano[3′,4′:6,7]indolazo[1,2-b]quinolin-9-yl)oxy)methyl)-5-(((2S,3R,4S,5 S,6S)-3,4,5-trihydroxy-6-(methoxycarbonyl)tetrahydro-2H-pyran-2-yl)oxy)phenoxy)methyl)-1H-1,2,3-triazol-1-yl)hexanamido)-3,3′-dimethyl-[1,1′-biphenyl]-4-yl)diazenyl)-5-hydroxynaphthalene-1,3-disulfonate disodium [Example 21]
[4]
  Final body weight change (%): 6.9%
[5]
  Final body weight change (%): −1.6%

## (2S,3S,4S,5R,6S)-6-(3-((1-(2-(2-(2-((4′-((E)-(8-amino-1-hydroxy-5,7-disulfonicnaphthalen-2-yl)diazenyl)-3,3′-dimethyl-[1,1′-biphenyl]-4-yl)amino)-2-oxoethoxy)ethoxy)ethyl)-1H-1,2,3-triazol-4-yl)methoxy)-4-(((S)-4,11-diethyl-4-hydroxy-3,14-dioxo-3,4,12,14-tetrahydro-1H-pyrano[3′,4′:6,7]indolazino[1,2-b]quinolin-9-yl)oxy)methyl)phe noxy)-3,4,5-trihydroxytetrahydro-2H-pyran-2-carboxylate trisodium [Example 54]
[1]
  Final body weight change (%): −12.5%
[3]
  Final body weight change (%): 5.8%

## (2S,3S,4S,5R,6S)-6-(3-((1-(8-((4′-((E)-(8-amino-1-hydroxy-5,7-disulfonicnaphthalen-2-yl)diazenyl)-[1,1′-biphenyl]-4-yl)amino)-8-oxooctyl)-1H-1,2,3-triazol-4-yl)methoxy)-4-((((S)-4,11-diethyl-4-hydroxy-3,14-dioxo-3,4,12,14-tetrahydro-1H-pyrano[3′,4′: 6,7]indolazino[1,2-b]quinolin-9-yl)oxy)methyl)phenoxy)-3,4,5-trihydroxytetrahydro-2H-pyran-2-carboxylate trisodium [Example 47]
[4]
  Final body weight change (%): 9.7%

## (2S,3S,4S,5R,6S)-6-(3-((1-(2-(2-(2-((4′-((E)-(8-amino-1-hydroxy-5,7-disulfononaphthalen-2-yl)diazenyl)-3,3′-dimethoxy-[1,1′-biphenyl]-4-yl)amino)-2-oxoethoxy)ethoxy)ethyl)-1H-1,2,3-triazol-4-yl)methoxy)-4-(((S)-4,11-diethyl-4-hydroxy-3,14-dioxo-3,4,12,14-tetrahydro-1H-pyrano[3′,4′:6,7]indolazino[1,2-b]quinolin-9-yl)oxy)methyl)phenoxy)-3,4,5-trihydroxytetrahydro-2H-pyran-2-carboxylate trisodium [Example 61]
[1]
  Final body weight change (%): −4.9%
[3]
  Final body weight change (%): 5.4%

## (2S,3S,4S,5R,6S)-6-(3-((1-(6-((4′-((E)-(8-amino-1-hydroxy-5,7-disulfonicnaphthalen-2-yl)diazenyl)-[1,1′-biphenyl]-4-yl)amino)-6-oxohexyl)-1H-1,2,3-triazol-4-yl)methoxy)-4-((((S)-4,11-diethyl-4-hydroxy-3,14-dioxo-3,4,12,14-tetrahydro-1H-pyrano[3′,4′:6,7]indolazino[1,2-b]quinolin-9-yl)oxy)methyl)phenoxy)-3,4,5-trihydroxytetrahydro-2H-pyran-2-carboxylate trisodium [Example 78]
[4]
  Final body weight change (%): 7.1%
[5]
  Final body weight change (%): 3.8%

## (2S,3S,4S,5R,6S)-6-(3-((1-(6-((4′-((E)-(8-amino-1-hydroxy-5,7-disulfonicnaphthalen-2-yl)diazenyl)-3,3′-dimethoxy-[1,1′-biphenyl]-4-yl)amino)-6-oxohexyl)-1H-1,2,3-triazol-4-yl)methoxy)-4-(((S)-4,11-diethyl-4-hydroxy-3,14-dioxy-3,4,12,14-tetrahydro-1H-pyrano[3′,4′:6,7]indolizino[1,7]quinolin-9-yl)oxy)methyl)phenoxy)-3,4,5-trihydroxytetrahydro-2H-pyran-2-carboxylate trisodium [Example 69]
[4]
  Final body weight change (%): 5.8%

## (2S,3S,4S,5R,6S)-6-(3-((1-(6-((4′-((E)-(8-amino-1-hydroxy-5,7-disulfonicnaphthalen-2-yl)diazenyl)-3,3′-dimethyl-[1,1′-biphenyl]-4-yl)amino)-6-oxohexyl)-1H-1,2,3-triazol-4-yl)methoxy)-4-(((S)-4-ethyl-4-hydroxy-3,14-dioxy-3,4,12,14-tetrahydro-1H-pyrano[3′,4′:6,7]indolazino[1,2-b]quinolin-9-yl)oxy)methyl)phenoxy)-3,4,5-trihydroxytetrahydro-2H-pyran-2-carboxylate trisodium [Example 24]
[6]
  Final body weight change (%): −0.6%

## (2S,3S,4S,5R,6S)-6-(3-((1-(8-((4′-((E)-(8-amino-1-hydroxy-5,7-disulfonicnaphthalen-2-yl)diazenyl)-3,3′-dimethyl-[1,1′-biphenyl]-4-yl)amino)-8-oxooctyl)-1H-1,2,3-triazol-4-yl)methoxy)-4-((((S)-4,11-diethyl-4-hydroxy-3,14-dioxy-3,4,12,14-tetrahydro-1H-pyrano[3′,4′:6,7]indolizino[1,2-b]quinolin-9-yl)oxy)methyl)phenoxy)-3,4,5-trihydroxytetrahydro-2H-pyran-2-carboxylate trisodium [Example 40]
[4]
  Final body weight change (%): 8.5%
